Experimental properties from OPERA 2.9

From the experimental data distributed with OPERA 2.9.

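The numbers are reported measurements, compiled and curated for the OPERA QSAR suite. The files give a single number for a compound and property, which may rest on several reports. Method, purity and exact conditions of the single measurements are not given. The measured form (salt, isomer or mixture) is not always the one drawn. Some entries may be limits or estimates that an upstream database listed as plain numbers.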

Melting points are in °C.
The boiling point refers to atmospheric pressure (760 mmHg), by the definition of the set.
The octanol-water partition coefficient is given as log10; larger values mean a more lipophilic compound.
Solubility in water is on a log10 molar scale (set defined at 25 °C).
Vapor pressures (log10 mmHg) refer to near room temperature, 15 to 30 °C; higher is more volatile.
Henry's law constant (air-water partitioning) is log10 of atm·m3/mol, nominally at 25 °C.
fu is the fraction unbound in human plasma, from 0 to 1.
Cells with "n/a" have no entry in this list.

{"smiles": "CCC(C)NC(N)=O", "stereo": "stereo not drawn", "name": "sec-Butylurea", "MP (°C)": "171", "log S (log10 mol/L)": "-0.463", "vapor pressure (log10 mmHg)": "-4.979"}
{"smiles": "C=C(C#N)C(=O)OC", "name": "Methyl 2-cyanoacrylate", "MP (°C)": "-21.5", "vapor pressure (log10 mmHg)": "-0.699"}
{"smiles": "CCC(=O)CC(C)CC", "stereo": "stereo not drawn", "name": "5-Methyl-3-heptanone", "MP (°C)": "-56.7", "log Kow": "2.76", "log S (log10 mol/L)": "-1.728", "vapor pressure (log10 mmHg)": "0.301"}
{"smiles": "CC(C)CCCCCCCOC(=O)C=CC(=O)OCCCCCCCC(C)C", "name": "Bis(8-methylnonyl) but-2-enedioate", "MP (°C)": "-87", "log S (log10 mol/L)": "-6.422"}
{"smiles": "Clc1cc(Cl)c(OCC#CI)cc1Cl", "name": "Haloprogin", "log Kow": "5.3", "log S (log10 mol/L)": "-4.779"}
{"smiles": "CC1C2CC(CC2C2CCC(O)CC2)C1(C)C", "stereo": "stereo not drawn", "name": "Cyclohexanol, 4-(5,5,6-trimethylbicyclo[2.2.1]hept-2-yl)-", "MP (°C)": "-2", "bp (°C)": "240"}
{"smiles": "Cc1c(Br)c2ccc(F)cc2n1S(=O)(=O)c1ncn(S(=O)(=O)N(C)C)n1", "name": "Amisulbrom", "MP (°C)": "129.3", "log Kow": "4.4", "vapor pressure (log10 mmHg)": "-4.745"}
{"smiles": "C[C@]12CC[C@H]3[C@@H]([C@H]4C[C@H]4[C@]4(O)C[C@@H](O)CC[C@]34C)[C@@H]1[C@@H]1C[C@@H]1[C@@]2(O)CCCO", "log Kow": "2", "log S (log10 mol/L)": "-3.048"}
{"smiles": "O=C1c2ccccc2C(=O)C1c1ccccc1", "name": "Phenindione", "log S (log10 mol/L)": "-3.985", "fraction unbound": "0.03"}
{"smiles": "O=C(c1ccccc1)C1CCCCC1", "name": "Cyclohexylphenylketone", "log Kow": "3.7", "log S (log10 mol/L)": "-4.015", "vapor pressure (log10 mmHg)": "-2.293"}
{"smiles": "C=CC(=O)OCC1COC(C)(CC)O1", "stereo": "stereo not drawn", "name": "(2-Ethyl-2-methyl-1,3-dioxolan-4-yl)methyl prop-2-enoate", "bp (°C)": "188", "log Kow": "1.92", "vapor pressure (log10 mmHg)": "-1.292"}
{"smiles": "CC/C=C\\CC(C)OC(=O)c1ccccc1O", "stereo": "stereo partly drawn", "name": "Benzoic acid, 2-hydroxy-, (3Z)-1-methyl-3-hexen-1-yl ester", "bp (°C)": "282.4", "vapor pressure (log10 mmHg)": "-2.803"}
{"smiles": "CCC(CC(C)CC)=NO", "stereo": "stereo not drawn", "name": "N-(5-Methyl-3-heptanylidene)hydroxylamine", "log Kow": "2.3", "log S (log10 mol/L)": "-2.131", "vapor pressure (log10 mmHg)": "-1.271"}
{"smiles": "CCOC(=O)/C(Cl)=C/c1cc(N2C(=O)C3=C(CCCC3)C2=O)ccc1Cl", "name": "Cinidon-ethyl", "MP (°C)": "112", "log S (log10 mol/L)": "-6.839", "log H (log10 atm·m3/mol)": "-6.166"}
{"smiles": "CCCCC[C@H](O)/C=C/[C@H]1[C@H](O)CC(=O)[C@@H]1CCCCCCC(=O)O", "name": "Alprostadil", "log S (log10 mol/L)": "-3.67", "fraction unbound": "0.08"}
{"smiles": "CCCc1ccc(-c2ccc(OCC)c(F)c2F)cc1", "MP (°C)": "49.8", "bp (°C)": "349.8", "log Kow": "6.3", "log S (log10 mol/L)": "-7.119", "vapor pressure (log10 mmHg)": "-5.202"}
{"smiles": "CCC[C@H]1CC[C@H](c2cccc(F)c2)CC1", "name": "1-Fluoro-3-(trans-4-propylcyclohexyl)benzene", "MP (°C)": "-10", "bp (°C)": "296.7", "log S (log10 mol/L)": "-7.355", "vapor pressure (log10 mmHg)": "-3.854"}
{"smiles": "C/C=C/C(=O)OC(CC)C(C)C", "stereo": "stereo partly drawn", "name": "2-Butenoic acid, 1-ethyl-2-methylpropyl ester, (2E)-", "bp (°C)": "197", "log Kow": "3.75", "log S (log10 mol/L)": "-3.174", "vapor pressure (log10 mmHg)": "-0.096"}
{"smiles": "CS(=O)(=O)c1ccc(CNc2ncccc2Br)c(C(F)(F)F)c1", "MP (°C)": "122", "log S (log10 mol/L)": "-6.767", "vapor pressure (log10 mmHg)": "-9.403"}
{"smiles": "C=CC1CCC(C=C)C(C=C)C1", "stereo": "stereo not drawn", "name": "Cyclohexane, 1,2,4-triethenyl-", "log S (log10 mol/L)": "-6.173", "vapor pressure (log10 mmHg)": "-0.335"}
{"smiles": "CCOCC(C)OC(C)=O", "stereo": "stereo not drawn", "name": "1-Ethoxypropan-2-yl acetate", "MP (°C)": "-79.5", "log Kow": "0.76", "vapor pressure (log10 mmHg)": "0.206"}
{"smiles": "COC(=O)C(C)(C)N=NC(C)(C)C(=O)OC", "MP (°C)": "27.4", "log Kow": "2.47", "log S (log10 mol/L)": "-1.851"}
{"smiles": "CC(Cl)C(Cl)(Cl)C(O)N=C(O)CCl", "stereo": "stereo not drawn", "name": "2-Chloro-N-(2,2,3-trichloro-1-hydroxybutyl)ethanimidic acid", "MP (°C)": "-7.8", "bp (°C)": "142"}
{"smiles": "Nc1ccc(C2(c3ccc(N)c(Cl)c3)c3ccccc3-c3ccccc32)cc1Cl", "name": "4,4'-(9H-Fluorene-9,9-diyl)bis(2-chloroaniline)", "log Kow": "4.49", "log S (log10 mol/L)": "-6.904", "vapor pressure (log10 mmHg)": "-8.586"}
{"smiles": "CCCCC(CC)C(=O)OCC(COC(=O)C(CC)CCCC)(COC(=O)C(CC)CCCC)COC(=O)C(CC)CCCC", "stereo": "stereo not drawn", "MP (°C)": "9", "vapor pressure (log10 mmHg)": "-8.639"}
{"smiles": "c1ccc([C@H]2CN3CCSC3=N2)cc1", "name": "Levamisole", "log S (log10 mol/L)": "-2.26", "vapor pressure (log10 mmHg)": "-3.955"}
{"smiles": "C/C=C/C=C/C(=O)OCCC[Si](OC)(OC)OC", "log Kow": "3.09", "log S (log10 mol/L)": "-2.793"}
{"smiles": "CSc1nc(NC2CC2)nc(NC(C)(C)C)n1", "name": "Cybutryne", "log Kow": "2.8", "vapor pressure (log10 mmHg)": "-6.18"}
{"smiles": "CCCc1ccc(O)c(OC)c1", "name": "2-Methoxy-4-propylphenol", "MP (°C)": "-6", "log Kow": "2.8", "log S (log10 mol/L)": "-2.179", "vapor pressure (log10 mmHg)": "-1.648"}

The last 5 entries again:

| compound | name | MP (°C) | bp (°C) | log Kow | log S (log10 mol/L) | vapor pressure (log10 mmHg) | log H (log10 atm·m3/mol) | fraction unbound |
|---|---|---|---|---|---|---|---|---|
| CCCCC(CC)C(=O)OCC(COC(=O)C(CC)CCCC)(COC(=O)C(CC)CCCC)COC(=O)C(CC)CCCC (stereo not drawn) | n/a | 9 | n/a | n/a | n/a | -8.639 | n/a | n/a |
| c1ccc([C@H]2CN3CCSC3=N2)cc1 | Levamisole | n/a | n/a | n/a | -2.26 | -3.955 | n/a | n/a |
| C/C=C/C=C/C(=O)OCCC[Si](OC)(OC)OC | n/a | n/a | n/a | 3.09 | -2.793 | n/a | n/a | n/a |
| CSc1nc(NC2CC2)nc(NC(C)(C)C)n1 | Cybutryne | n/a | n/a | 2.8 | n/a | -6.18 | n/a | n/a |
| CCCc1ccc(O)c(OC)c1 | 2-Methoxy-4-propylphenol | -6 | n/a | 2.8 | -2.179 | -1.648 | n/a | n/a |